Data from publication PMC5385157 (Neuropharmacology, 2016).

Sequences of proteins named here, by UniProt entry; tags and fusion partners are left off.
UniProt Q01338, whole entry: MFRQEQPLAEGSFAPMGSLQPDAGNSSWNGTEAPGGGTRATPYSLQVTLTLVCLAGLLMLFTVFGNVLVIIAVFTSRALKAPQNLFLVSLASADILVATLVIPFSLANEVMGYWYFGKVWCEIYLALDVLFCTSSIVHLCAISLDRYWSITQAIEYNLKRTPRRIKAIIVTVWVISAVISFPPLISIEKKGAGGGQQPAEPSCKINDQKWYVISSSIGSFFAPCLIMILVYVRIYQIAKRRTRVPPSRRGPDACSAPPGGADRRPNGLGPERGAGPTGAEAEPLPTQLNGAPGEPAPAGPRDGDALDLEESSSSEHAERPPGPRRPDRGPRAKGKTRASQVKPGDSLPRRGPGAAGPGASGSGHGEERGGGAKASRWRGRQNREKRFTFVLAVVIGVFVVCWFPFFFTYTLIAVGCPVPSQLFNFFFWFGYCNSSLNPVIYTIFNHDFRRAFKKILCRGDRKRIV

How the values were obtained:
HA-α2AAR [1] = target: T1, HA-α2AAR (Mus musculus, UniProt Q01338); conditions: 1 µM, 30 min
α2AAR/Arr3 interaction = α2AAR/Arr3 interaction (Mus musculus, UniProt Q01338); conditions: 1 µM, live HEK 293 cells
HA-α2AAR [2] = target: T1, HA-α2AAR; conditions: 1 µM, WT MEF cells

α2AAR endocytosis (intracellular punctae) (HA-α2AAR [1]): failed to induce detectable endocytosis
α2AAR/Arr3 interaction (FLIM-FRET efficiency) (α2AAR/Arr3 interaction): robust α2AAR/Arr3 interaction
receptor loss from the cell surface (HA-α2AAR [2]): failed to induce detectable endocytosis
SMILES: OCCN1CCN(CCCN2c3ccccc3Sc3ccc(C(F)(F)F)cc32)CC1 [Fluphenazine, fluphenazine]
